Laboratory results reported in patent US20040076968A1, “Method for detecting pre-disposition to hepatotoxicity” (priority 2000, published 2004).

Tests used:
UGT1A6 gene = assay: Association of UGT1A6 polymorphisms with liver function abnormality in tolcapone-treated patients (case-control genotyping); assay type: in vivo, human
[1] = system: UGT1A gene 3′UTR (exon 5); assay: Association of the UGT1A 3′UTR polymorphism with liver function abnormality in tolcapone-treated patients (case-control genotyping); assay type: in vivo, human

Cc1ccc(C(=O)c2cc(O)c(O)c([N+](=O)[O-])c2)cc1 [tolcapone]
Relative Risk (UGT1A6 gene; UGT1A6_232 Ser7Ala, Allele G): 1.41
Relative Risk (UGT1A6 gene; UGT1A6_232 Ser7Ala, Allele T): 0.64
Relative Risk (UGT1A6 gene; UGT1A6_528 A/G, Allele A): 0.55
Relative Risk (UGT1A6 gene; UGT1A6_528 A/G, Allele G): 1.52
Relative Risk (UGT1A6 gene; UGT1A6_754 Thr181Ala, Allele Ala): 1.50
Relative Risk (UGT1A6 gene; UGT1A6_754 Thr181Ala, Allele Thr): 0.57
Relative Risk (UGT1A6 gene; UGT1A6_765 Arg184Ser, Allele Arg): 0.58
Relative Risk (UGT1A6 gene; UGT1A6_765 Arg184Ser, Allele Ser): 1.47
Relative Risk ([1]; UGT1A-3′_908, Allele C): 1.51
Relative Risk ([1]; UGT1A-3′_908, Allele G): 0.61
